Results as given in article PMC5691035.

Target: Pfs25, monomeric, Nicotiana benthamiana-produced (Plasmodium falciparum (NF54; identical in 3D7)) (UniProt P13829)
Test: BLI

| Kd [nM] | Substance |
| --- | --- |
| 6.7 | 1190 Fab |
| 16 | 1276 Fab |
